Source: patent publication US20080235828A1, “PLANT PROTEINS HAVING AN ABSCISIC ACID BINDING SITE AND METHODS OF USE” (University of Manitoba, priority 2004, published 2008)

By UniProt entry, the sequences of proteins in these tests, tags left out.
UniProt Q9LLX3, entry or part of it: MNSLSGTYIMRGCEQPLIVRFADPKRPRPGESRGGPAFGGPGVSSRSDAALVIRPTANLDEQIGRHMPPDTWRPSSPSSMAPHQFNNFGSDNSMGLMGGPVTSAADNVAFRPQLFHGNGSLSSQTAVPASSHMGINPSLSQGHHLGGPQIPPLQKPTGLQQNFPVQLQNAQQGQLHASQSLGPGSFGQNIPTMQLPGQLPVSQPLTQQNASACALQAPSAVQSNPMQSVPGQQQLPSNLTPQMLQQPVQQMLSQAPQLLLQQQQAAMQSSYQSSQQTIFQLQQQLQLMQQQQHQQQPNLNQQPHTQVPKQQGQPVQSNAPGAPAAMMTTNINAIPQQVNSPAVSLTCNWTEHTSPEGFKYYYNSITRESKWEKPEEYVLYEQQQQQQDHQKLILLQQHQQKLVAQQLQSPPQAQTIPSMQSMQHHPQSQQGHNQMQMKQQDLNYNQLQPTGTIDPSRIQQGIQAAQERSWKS

Assays:
FCA protein = target: T1, FCA protein (Arabidopsis thaliana, UniProt O04425); assay: ABA binding assay with purified recombinant FCA; design: Kd; other: analog added in higher concentrations than 3H+-ABA (20-5000 nM); other: Scatchard analysis, r^2=0.88; other: in presence of 5 μM unlabelled (+)-ABA; pH range of maximum; fused on or other part: GST fused on for purification; details: Scatchard analysis of saturation binding
T1 sequence (O04425 1-747 isoform O04425-1): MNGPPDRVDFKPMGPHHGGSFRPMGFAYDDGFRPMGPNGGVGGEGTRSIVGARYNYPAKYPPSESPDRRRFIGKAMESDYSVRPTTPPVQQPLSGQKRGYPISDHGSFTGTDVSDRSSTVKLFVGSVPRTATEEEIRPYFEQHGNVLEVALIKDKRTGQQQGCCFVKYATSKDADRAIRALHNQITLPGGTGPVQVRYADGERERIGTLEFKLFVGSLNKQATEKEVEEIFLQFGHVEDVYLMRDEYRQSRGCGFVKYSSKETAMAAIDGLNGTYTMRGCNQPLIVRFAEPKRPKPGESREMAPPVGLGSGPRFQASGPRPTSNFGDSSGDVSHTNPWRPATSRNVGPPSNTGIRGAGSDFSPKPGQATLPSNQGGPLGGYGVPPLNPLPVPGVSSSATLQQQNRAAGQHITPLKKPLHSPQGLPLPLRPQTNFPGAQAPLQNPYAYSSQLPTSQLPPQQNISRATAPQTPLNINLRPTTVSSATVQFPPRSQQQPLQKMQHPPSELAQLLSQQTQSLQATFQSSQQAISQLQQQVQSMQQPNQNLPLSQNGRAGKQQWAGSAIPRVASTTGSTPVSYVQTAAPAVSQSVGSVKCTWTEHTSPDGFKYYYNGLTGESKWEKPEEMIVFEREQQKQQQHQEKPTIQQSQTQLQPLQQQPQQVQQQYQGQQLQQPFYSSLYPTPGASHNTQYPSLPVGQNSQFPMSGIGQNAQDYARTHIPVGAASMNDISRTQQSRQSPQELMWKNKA
Protocol: Crude lysate and purified FCA protein were used to determine the ABA binding activity as described^V. Briefly, the incubation medium consisted of 12.5 mM Tris-HCl, pH 7.3 containing 50 nm ^3H^+-ABA (except when the kinetics of FCA was determined), and 10 μg purified FCA protein or the equivalent of 50 μg crude lysate. […] The mixture was then rapidly filtered through a nitrocellulose membrane, washed with 0.5× binding buffer, air dried and counted in a scintillation counter (Wallac 1414 WinSpectral v1.40). Heat denatured FCA protein was used to used determine the protein nature of the FCA and BSA was used as a control. All binding studies were carried out using three different GST affinity chromatography protein purifications with triplicate assays for each purification. For the competitive assays, ABA analogs (−)-ABA and trans-ABA were added at the same time as ^3H^+-ABA at different concentrations (20-5000 nM). Specific binding was calculated by taking the difference for assays with only ^3H^+-ABA (total binding) and assays that also contained 5 μM (±)-ABA added at the same time as ^3H^+-ABA (non-specific binding). Binding was represented as the number of moles of ^3H^+-ABA per mole of FCA protein.

ABAP1 = ABAP1 (Hordeum vulgare, UniProt Q9LLX3); assay: ABA binding assay with purified recombinant ABAP1; design: species or system barley
Protocol: Purified ABAP1 protein was used to determine the ABA binding activity as described (15) with some modifications as follows. Generally, the incubation medium consisted of 25 mM Tris buffer, pH 7.3 (except when testing ABA binding at different pH) and 250 mM sucrose, 5 mM MgCl2, 3+1 mM CaCl2, 50 nM ^3H^+-ABA (except when the kinetics of ABAP1 was determined), and 10 μg ABAP1. Other additions or changes to the incubation system are discussed in the figure legends. All binding assays were carried out at a final volume of 150 μL at 4° C. for 1 hour. The mixture was then rapidly filtered through a nitrocellulose membrane, washed with 5 mL, of cold 0.5× binding buffer by rapid filtration, dried in air and counted in a scintillation counter (Wallac 1414 WinSpectral v1.40). To ensure the efficiency of membrane washing and that only bound ^3H^+-ABA was counted, aliquots of the binding mixtures were mixed with a 100 μL of 0.5% (w/v) DCC (Dextran T70-coated charcoal) to remove any free ABA by adsorption. […] The resulted supernatant was then counted in a scintillation counter to determine the binding activity. […] Specific binding (SB) was calculated by taking the difference for assays with only ^3H^+-ABA (total binding) and assays that also contain 5 μM (+) ABA added at the same time as ^3H^+-ABA (non-specific binding). […]

## abscisic acid [ABA]
FCA protein
  Kd: 19 nM and ~19 nM
ABAP1; Scatchard plot, one binding site
  Kd: 28 nM and ~28 nM
ABAP1; read-out: dissociation constant Kd, Scatchard plot analysis, 3H+-ABA saturation binding
  Kd: ~28 nM

“And” between values parts separate entries of the source, which are not always exact repeats. Equal values may be shown once. Read-outs that look alike come from different tables or passages of the source.
